## scFv variants of Ab-14 (heavy chain) against a SARS-CoV-2 spike peptide

Target: peptide PDVDLGDISGINAS, taken from heptad repeat 2 (HR2) of SARS-CoV-2 spike.

Each scFv is VH, a (GGGGS)3 linker, VL, as in the parent Ab-14, and differs from it in the CDRs of the heavy chain only.
VH: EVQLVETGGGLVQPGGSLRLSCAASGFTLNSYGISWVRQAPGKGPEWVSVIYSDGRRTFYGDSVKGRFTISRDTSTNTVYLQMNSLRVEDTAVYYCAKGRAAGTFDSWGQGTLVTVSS
VL: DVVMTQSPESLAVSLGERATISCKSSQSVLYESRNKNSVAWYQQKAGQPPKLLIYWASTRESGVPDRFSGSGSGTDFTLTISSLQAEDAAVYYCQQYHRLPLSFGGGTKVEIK

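The parent was found by panning a naive human phage display library on the peptide. The variants were designed computationally from a first round of random CDR variants and then made and measured. Several design methods are mixed in this list. AlphaSeq pools MATa yeast showing the antibodies with MATalpha yeast showing the peptide. The frequency of each diploid, read from paired DNA barcodes, reflects how well the two displayed proteins bind. Scores were corrected for input abundance and mapped to Kd with protein pairs of known affinity run in the same pool. Each pool was mated in six replicate cultures.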

Sequences are complete VH domains. Affinities are written as log10 Kd with Kd in nM; a lower number is a better binder. A mean of the replicates is given; it leaves out those without a signal. An entry "nd" has no value in the source: the pair was not observed among the diploids in any replicate. This suggests poor binding but is not conclusive.

For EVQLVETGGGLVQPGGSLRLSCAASGFDLNEYGISWVRQAPGKGPEWVSVIYADGMRTAYADSVKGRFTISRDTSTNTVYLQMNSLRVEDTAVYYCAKGQVAGTFDQWGQGTLVTVSS, the assay gave -0.39 (6 of 6 replicates; controls 0 of 18).
For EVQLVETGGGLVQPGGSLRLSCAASGFNLNMYGISWVRQAPGKGPEWVSVIYSDGRRTFYGDSVKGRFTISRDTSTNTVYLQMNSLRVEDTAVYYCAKGRTAGTFDSWGQGTLVTVSS, the assay gave 1.02 (6 of 6 replicates; controls 1 of 18).
For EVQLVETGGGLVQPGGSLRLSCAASGQDLDEYGISWVRQAPGKGPEWVSVIYADGFRTAYADTVKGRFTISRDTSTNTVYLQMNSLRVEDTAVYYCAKGTLGFMLDSWGQGTLVTVSS, the assay gave nd (0 of 6 replicates; controls 1 of 18).
For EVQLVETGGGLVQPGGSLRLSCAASGFWLNSYGISWVRQAPGKGPEWVSVIYADGRRTFYGDSVKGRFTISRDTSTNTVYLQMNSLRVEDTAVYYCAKGTAAGTFDSWGQGTLVTVSS, the assay gave 1.18 (6 of 6 replicates; controls 0 of 18).
For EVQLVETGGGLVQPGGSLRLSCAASGFDLNEYGISWVRQAPGKGPEWVSVIYADGVRTYYADSVKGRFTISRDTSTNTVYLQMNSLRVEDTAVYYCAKGEVAGTFDVWGQGTLVTVSS, the assay gave 0.04 (6 of 6 replicates; controls 0 of 18).
For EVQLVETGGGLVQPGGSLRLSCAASGFDLNEYGISWVRQAPGKGPEWVSVIYADGQRVFYHDNVKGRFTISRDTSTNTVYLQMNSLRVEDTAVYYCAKGQLNVVVNAWGQGTLVTVSS, the assay gave nd (0 of 6 replicates; controls 0 of 18).
For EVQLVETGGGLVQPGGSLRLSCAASGFSLNEYGISWVRQAPGKGPEWVSVIYADGIRQHYKDKVKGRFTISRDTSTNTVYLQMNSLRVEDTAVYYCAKGVVFGNVLFWGQGTLVTVSS, the assay gave nd (0 of 6 replicates; controls 0 of 18).
For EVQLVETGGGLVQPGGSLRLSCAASGFTLNSYGISWVRQAPGKGPEWVSVIYSDGLRTFYGDSFKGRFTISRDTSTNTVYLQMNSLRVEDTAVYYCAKGRAAGTFDSWGQGTLVTVSS, the assay gave 1.97 (3 of 6 replicates; controls 0 of 18).
For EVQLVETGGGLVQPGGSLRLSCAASGETLNKYGIDWVRQAPGKGPEWVSVIYSDGRRTFYQDSVKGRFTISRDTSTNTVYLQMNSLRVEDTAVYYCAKGRAAGTFDSWGQGTLVTVSS, the assay gave nd (0 of 6 replicates; controls 0 of 18).

The remaining entries, values ahead:

-0.20 (6 of 6 replicates; controls 0 of 18) for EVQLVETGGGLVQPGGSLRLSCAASGFDLNEYGISWVRQAPGKGPEWVSVIYADGKRTAYSDSVKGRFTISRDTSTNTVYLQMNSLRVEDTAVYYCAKGNAAGTFDVWGQGTLVTVSS.
nd (0 of 6 replicates; controls 0 of 18) for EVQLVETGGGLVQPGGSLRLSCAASHFNLNEYGISWVRQAPGKGPEWVSVIYEDGRRTFYTDSVKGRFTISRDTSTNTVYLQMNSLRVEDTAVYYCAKGRFAGTFDSWGQGTLVTVSS.
2.08 (1 of 6 replicates; controls 1 of 18) for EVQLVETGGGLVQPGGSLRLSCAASGFTLNSYGISWVRQAPGKGPEWVSVIYSDGRRTFYGDSVKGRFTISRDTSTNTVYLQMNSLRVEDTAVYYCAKRRQAGTFDSWGQGTLVTVSS.
nd (0 of 6 replicates; controls 1 of 18) for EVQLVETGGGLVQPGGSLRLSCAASGMNLGEYGISWVRQAPGKGPEWVSVIYADGVRQAYVDKVKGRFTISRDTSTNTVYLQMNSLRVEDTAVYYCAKGFNGVDGLIWGQGTLVTVSS.
nd (0 of 6 replicates; controls 0 of 18) for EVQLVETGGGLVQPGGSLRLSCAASGFTLNSYGISWVRQAPGKGPEWVSVIYSDGRRTFYGDSVKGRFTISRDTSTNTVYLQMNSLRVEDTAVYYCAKGRATGTFDSWGQGTLVTVSS.
nd (0 of 6 replicates; controls 0 of 18) for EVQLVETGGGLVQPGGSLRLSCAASGFWLNEYGISWVRQAPGKGPEWVSVIYSDGRRTFYGDSIKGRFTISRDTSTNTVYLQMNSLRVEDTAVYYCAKRRAAGTFNSWGQGTLVTVSS.
0.54 (6 of 6 replicates; controls 0 of 18) for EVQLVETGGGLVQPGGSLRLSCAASGFDLNEYGISWVRQAPGKGPEWVSVIYADGMRTYYADSVKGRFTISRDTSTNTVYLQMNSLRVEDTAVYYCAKGQNAGTFDIWGQGTLVTVSS.
nd (0 of 6 replicates; controls 0 of 18) for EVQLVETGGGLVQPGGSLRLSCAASGFDLNSYGISWVRQAPGKGPEWVSVIYSDGRRTFYGDSVKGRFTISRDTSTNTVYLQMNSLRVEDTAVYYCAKGRTAGRFDSWGQGTLVTVSS.
0.32 (6 of 6 replicates; controls 0 of 18) for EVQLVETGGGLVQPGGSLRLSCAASGFDLNSFGISWVRQAPGKGPEWVSVIYSDGRRTFYGDSVKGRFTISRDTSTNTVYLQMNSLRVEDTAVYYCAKGRTAGTFDSWGQGTLVTVSS.

The last 3 entries again:

VH	mean, log10 nM	seen in	signal with controls
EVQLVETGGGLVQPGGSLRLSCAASGFDLNEYGISWVRQAPGKGPEWVSVIYADGMRTYYADSVKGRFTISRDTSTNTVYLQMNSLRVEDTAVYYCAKGQNAGTFDIWGQGTLVTVSS	0.54	6/6	0/18
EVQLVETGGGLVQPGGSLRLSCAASGFDLNSYGISWVRQAPGKGPEWVSVIYSDGRRTFYGDSVKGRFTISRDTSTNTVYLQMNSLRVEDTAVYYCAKGRTAGRFDSWGQGTLVTVSS	nd	0/6	0/18
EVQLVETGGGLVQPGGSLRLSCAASGFDLNSFGISWVRQAPGKGPEWVSVIYSDGRRTFYGDSVKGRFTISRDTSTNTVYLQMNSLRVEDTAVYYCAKGRTAGTFDSWGQGTLVTVSS	0.32	6/6	0/18

As a blank, each scFv also met three strains without target: over all heavy chain designs, 1% of these pairings were detected, typically at 2.08 and seldom below 0.84. Also given: how often the same scFv was detected with the empty control strains. The authors' rule: three or more of the six replicates give a measured affinity, fewer mean a poor binder. Values of this round are not directly comparable with the first-round values of the same sequences. Of ten entries with the parent sequence, four were seen in most replicates (averages 0.34 to 2.37), three in one and three in none, so single entries are noisy.

Reference: Li et al. 2023, doi:10.1038/s41467-023-39022-2. File: FLAb, binding data.